Test system: GBR complex ([35S]TBPS site)
Test: dissociation kinetics of [35S]TBPS in cortical P2 homogenates
Type: binding, rat
Conditions: [35S]TBPS dissociation; alphaxalone 300 nM; 3a-OH-DHP 20 nM
Description: An assay was performed to determine the effect of pentobarbital on the dissociation kinetics of [^35 S]TBPS in rat cerebral cortical membranes. This assay was performed in accordance with the procedures outlined above. […] Dissociation of bound [^35 S]TBPS was initiated by 2 micromolar TBPS in all cases.
The steroid and barbiturate sites are, therefore, distinct.

CC(=O)[C@H]1CC[C@H]2[C@@H]3CC[C@H]4C[C@H](O)CC[C@]4(C)[C@H]3CC[C@]12C [3α-hydroxy-5α-pregnan-20-one]
k-1, rapidly dissociating component (R): 0.122 min⁻¹

Reference: patent publication US5208227A, “Method, compositions, and compounds for modulating brain excitability” (priority 1991, dated 1993)
